By UniProt entry, the sequences of proteins in these tests, tags left out.
UniProt P23219, whole entry: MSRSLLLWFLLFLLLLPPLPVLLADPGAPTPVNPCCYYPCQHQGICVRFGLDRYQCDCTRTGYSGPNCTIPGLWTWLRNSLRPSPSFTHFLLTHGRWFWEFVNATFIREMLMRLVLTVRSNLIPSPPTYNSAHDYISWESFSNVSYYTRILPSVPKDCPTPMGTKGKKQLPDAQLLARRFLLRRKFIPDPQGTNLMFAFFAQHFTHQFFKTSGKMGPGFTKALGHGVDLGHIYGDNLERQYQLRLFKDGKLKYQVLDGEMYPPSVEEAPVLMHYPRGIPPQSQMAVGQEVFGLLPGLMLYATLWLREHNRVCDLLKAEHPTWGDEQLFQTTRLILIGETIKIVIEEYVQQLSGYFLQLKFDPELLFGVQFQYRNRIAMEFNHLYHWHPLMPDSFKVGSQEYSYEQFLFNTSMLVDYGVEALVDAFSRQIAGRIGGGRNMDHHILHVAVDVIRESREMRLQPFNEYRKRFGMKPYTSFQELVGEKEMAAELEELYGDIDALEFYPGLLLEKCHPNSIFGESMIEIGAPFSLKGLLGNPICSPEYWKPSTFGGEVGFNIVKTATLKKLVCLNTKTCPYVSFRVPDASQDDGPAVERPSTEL

According to ChEMBL document CHEMBL4706749, “Development of Fluorescence Imaging Probes for Labeling COX-1 in Live Ovarian Cancer Cells” (ACS Med Chem Lett, 2021):

Biological target: T1, Prostaglandin G/H synthase 1 (Homo sapiens, UniProt P23219)

SMILES	IC50
COc1ccc(C2=C(c3cccc(F)c3)C(=O)OC2)cc1	0.48 µM

Biological target: T1, Prostaglandin G/H synthase 1
Assay type: cell-based, OVCAR-3
Remark: another data set of the same source

SMILES	IC50
Nc1cc(-c2ccco2)nn1-c1ccc(F)cc1	5 µM
[N-]=[N+]=Nc1cc(-c2ccco2)nn1-c1ccc(C(=O)O)cc1	0.4 µM
COc1ccc(-n2nc(-c3ccco3)cc2N)cc1	5.4 µM
Nc1cc(-c2ccco2)nn1-c1ccc(C(=O)O)cc1	0.07 µM
CC(C)c1ccc(-n2nc(-c3ccco3)cc2N)cc1	1.1 µM
Nc1cc(-c2ccco2)nn1-c1ccccc1	5.8 µM
O=C(O)c1ccc(-n2nc(-c3ccco3)cc2-n2cc(CNc3ccc([N+](=O)[O-])c4nonc34)nn2)cc1	0.9 µM
Nc1cc(-c2ccco2)nn1-c1ccc(Cl)cc1	20.5 µM
COC(=O)c1ccc(-n2nc(-c3ccco3)cc2N)cc1	0.09 µM
